## AlphaSeq binding of Ab-14 heavy chain variants to a spike HR2 peptide

The measurements come from Li et al. 2023 (doi:10.1038/s41467-023-39022-2) through the FLAb antibody collection.

Binding partner: SARS-CoV-2 spike HR2 peptide, sequence PDVDLGDISGINAS.

Parent scFv Ab-14: VH joined to VL by the linker GGGGSGGGGSGGGGS. Changes lie in the heavy chain CDRs alone.
VH: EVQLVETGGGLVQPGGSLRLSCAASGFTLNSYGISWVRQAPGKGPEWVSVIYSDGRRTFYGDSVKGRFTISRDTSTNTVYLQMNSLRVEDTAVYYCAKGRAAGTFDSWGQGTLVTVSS
VL: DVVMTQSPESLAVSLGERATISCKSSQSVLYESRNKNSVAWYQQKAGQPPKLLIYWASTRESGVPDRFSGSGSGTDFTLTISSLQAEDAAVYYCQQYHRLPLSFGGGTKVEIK

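The starting antibody came from a phage panning campaign against this peptide. Designed CDR sequences, proposed from the first random library and measured here. Group labels follow the data file (En: ensemble of fine-tuned language models; HC: hill climbing; Gen: genetic algorithm; Gibbs: Gibbs sampling; a sequence that several methods proposed may carry one label only). Affinity was read by AlphaSeq, a pooled yeast mating assay with surface-displayed partners. After mating in shaken culture at 30 °C for 16 h, diploids were selected and their barcode pairs sequenced. The ratio of observed to expected reads was calibrated, replicate by replicate, on BCL2-family standards whose Kd was known from biolayer interferometry. Mating was done six times.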

Variants are written as CDR1, CDR2 and CDR3 of the heavy chain (limits as in the source). Parent: GFTLNSYGIS, VIYSDGRRTFYGDSVK, GRAAGTFDS.
Variants here have more than six changes.
The Kd shown is the geometric mean over detected replicates; a lower Kd is a better binder.
A pair that was not seen in any replicate is written "no signal"; this usually means weak binding, but a binder can also be missed.
Order: sorted from the lowest average up, undetected variants last.
A sequence measured in both rounds can read differently, since the two assays cover different ranges.
Empty control strains, which show no peptide, gave a signal in 1% of pairings with all heavy chain designs; the median was 120 nM and 95% of these signals were weaker than 7.0 nM. No background was subtracted. Also given: how often the same scFv was detected with the empty control strains.
The authors' rule: three or more of the six replicates give a measured affinity, fewer mean a poor binder.
The parent sequence was in this pool as ten entries: three were never detected, three once, and four in most replicates, with averages from 2.2 nM to 240 nM.

- GFDLNEYGIS, VIYADGRRTQYADSVK, GETAGTFDV [En_HC] -> 15 pM (6 of 6 replicates; controls 0 of 18)
- GFDLNEYGIS, VIYADGMRTSYADSVK, GENAGTFDQ [En_Gen] -> 110 pM (6 of 6 replicates; controls 1 of 18)
- GFDLNEYGIS, VIYADGQRTAYTDSVK, GNVAGTFDV [En_Gen] -> 140 pM (6 of 6 replicates; controls 0 of 18)
- GFDLNEYGIS, VIYADGQRTFYADSVK, GSEAGTFDM [En_HC] -> 140 pM (6 of 6 replicates; controls 0 of 18)
- GFDLNEYGIS, VIYADGQRTAYQDSVK, GNVAGTFDV [En_Gen] -> 160 pM (6 of 6 replicates; controls 0 of 18)
- GFDLNEYGIS, VIYADGVRTAYSDSVK, GNVAGTFDM [En_Gen] -> 200 pM (6 of 6 replicates; controls 1 of 18)
- GFDLNEYGIS, VIYADGRRSYYADSVK, GQLAGTFDV [En_HC] -> 210 pM (6 of 6 replicates; controls 1 of 18)
- GFNLNEYGIS, VIYADGRRTFYADSVK, GNIAGTFDV [En_HC] -> 210 pM (6 of 6 replicates; controls 0 of 18)
- GFDLNEYGIS, VIYADGRRTFYADSVK, GNNAGTFNV [En_HC] -> 210 pM (6 of 6 replicates; controls 0 of 18)
- GFDLNEYGIS, VIYADGRRTFYADNVK, GQNAGTFDS [En_HC] -> 220 pM (6 of 6 replicates; controls 0 of 18)
- GFDLNEYGIS, VIYADGMRTAYVDSVK, GEVAGTFDI [En_Gen] -> 230 pM (6 of 6 replicates; controls 0 of 18)
- GFDLNEYGIS, VIYADGMRSYYADSVK, GENAGTFDM [En_Gen] -> 330 pM (6 of 6 replicates; controls 0 of 18)
- GFDLDEYGIS, VIYADGMRTAYSDNVK, GEVAGTFDQ [En_Gen] -> 360 pM (6 of 6 replicates; controls 1 of 18)
- GFNLNEYGIS, VIYADGRRTFYSNSVK, GEHAGTFDV [En_HC] -> 410 pM (6 of 6 replicates; controls 0 of 18)
- GFSLDEYGIS, VIYADGRRTFYADDVK, GNVAGTFDS [En_HC] -> 440 pM (6 of 6 replicates; controls 1 of 18)
- GFDLDEYGIS, VIYADGMRTAYSDSVK, GQNAGTFDL [En_Gen] -> 500 pM (6 of 6 replicates; controls 0 of 18)
- GFSLDEYGIS, VIYADGRRTAYADDVK, GNVAGTFDV [En_HC] -> 530 pM (6 of 6 replicates; controls 0 of 18)
- GFDLDEYGIS, VIYADGMRTAYADTVK, GNNAGTFDV [En_Gen] -> 530 pM (6 of 6 replicates; controls 0 of 18)
- GFDLNEYGIS, VIYADGMRTFYTDSVK, GGNAGTFDS [En_HC] -> 550 pM (6 of 6 replicates; controls 0 of 18)
- KFDIEHYGIS, VIYADGKRTGYSNAVK, GWQAGTFNT [En_Gibbs] -> 550 pM (6 of 6 replicates; controls 1 of 18)
- GFDLNEYGIS, VIYADGVRTAYADSVK, GETAGTFDV [En_Gen] -> 570 pM (5 of 6 replicates; controls 0 of 18)
- GFSLDEYGIS, VIYADGRRTFYADSVK, GNVAGTFDF [En_HC] -> 590 pM (6 of 6 replicates; controls 0 of 18)
- GFDLNEYGIS, VIYADGRRTYYADSVK, GEVAGTFDV [En_Gen] -> 610 pM (6 of 6 replicates; controls 0 of 18)
- GFGLDEYGIS, VIYADGRRTFYQDSVK, GNVAGTFDQ [En_HC] -> 680 pM (6 of 6 replicates; controls 0 of 18)
- GFDLNEYGIS, VIYADGRRTFYSDSVK, GNVGGTFDV [En_HC] -> 690 pM (6 of 6 replicates; controls 0 of 18)
- GFDLNEYGIS, VIYADGMRTVYADSVK, GKNAGTFDV [En_Gen] -> 760 pM (6 of 6 replicates; controls 0 of 18)
- GFDLNEYGIS, VIYADGMRTAYTDNVK, GEVAGTFDL [En_Gen] -> 780 pM (6 of 6 replicates; controls 0 of 18)
- GFDLDEYGIS, VIYADGMRTFYADSVK, GENAGTFDV [En_Gen] -> 870 pM (6 of 6 replicates; controls 0 of 18)
- GFDLNEYGIS, VIYADGMRTAYSDSVK, GNQAGTFDM [En_Gen] -> 960 pM (6 of 6 replicates; controls 0 of 18)
- GFDLNEYGIS, VIYADGQRTAYTDSVK, GQNAGTFDV [En_Gen] -> 1.6 nM (6 of 6 replicates; controls 0 of 18)
- GFTLDEYGIS, VIYADGMRTQYIDQVK, GLLVNTNMT [En_Gibbs] -> 1.8 nM (6 of 6 replicates; controls 0 of 18)
- GFDLNEYGIS, VIYADGRRTFYADNVK, GEVAGTFIS [En_HC] -> 3.3 nM (6 of 6 replicates; controls 0 of 18)
- GFNLDEYGIS, VIYADGKRTAYADSVK, GEVAGTFDT [En_HC] -> 3.3 nM (6 of 6 replicates; controls 0 of 18)
- GFDLNEYGIS, VIYADGVRTFYADSVK, GEAAGSFDQ [En_HC] -> 5.8 nM (5 of 6 replicates; controls 1 of 18)
- GKDMNDYGIS, VIYADGSRAAYGDNFK, GELAGTFDM [En_Gibbs] -> 9.0 nM (2 of 6 replicates; controls 1 of 18)
- GMGLSEYGIS, VIYADGMRTSYDNSVK, GAWAGTFDE [En_Gibbs] -> 14 nM (1 of 6 replicates; controls 0 of 18)
- GFTINEYGIS, VIYADGKRVEYNDKVK, GMLAGTFDQ [En_Gibbs] -> 210 nM (5 of 6 replicates; controls 1 of 18)
- GFNIDEYGIS, VIYADGSRAVYTESVK, GHNGNRLVE [En_Gibbs] -> 720 nM (2 of 6 replicates; controls 0 of 18)
- GFNLNEYGIS, VIYADGLRANYTDSVK, GNNRIVRLD [En_Gibbs] -> 2.0 µM (1 of 6 replicates; controls 0 of 18)
- GFNLNEYGIS, VIYADGRRTFYADSVK, GEHAGFFDI [En_HC] -> 2.6 µM (1 of 6 replicates; controls 1 of 18)
- GFNISEYGIS, VIYADGMRSNYADNVK, GHKGNAFID [En_Gibbs] -> no signal (0 of 6 replicates; controls 0 of 18)
- GRDLDEYGIS, VIYADGTRKMYAPNFK, GEHGGTFLM [En_Gibbs] -> no signal (0 of 6 replicates; controls 0 of 18)
- GKGLDEYGIS, VIYADGVRKAYAQSVK, GQVGFFIRV [En_Gibbs] -> no signal (0 of 6 replicates; controls 0 of 18)
- GFDIEEYGIS, VIYADGSRTVYSDSVK, SGRTFNMDL [En_Gibbs] -> no signal (0 of 6 replicates; controls 0 of 18)
- GYSLQDYGIS, VIYADGKRKSYAEDVK, GNSGGSFMD [En_Gibbs] -> no signal (0 of 6 replicates; controls 0 of 18)
- GFDLNEYGIS, VIYADGVRTAYLQNVK, GEVAGFDQY [En_Gibbs] -> no signal (0 of 6 replicates; controls 0 of 18)
- GFGLNEYGIS, VIYADGQRKYYADNVK, GHFGEDGVV [En_Gibbs] -> no signal (0 of 6 replicates; controls 0 of 18)
- GFDLEEMGVS, VIYHDGIRKAYKQKVK, GQTAGSFDV [En_Gibbs] -> no signal (0 of 6 replicates; controls 0 of 18)
- GFDFQEYGIS, VIYADGQRAVYSDSVK, GNIGAIFSD [En_Gibbs] -> no signal (0 of 6 replicates; controls 0 of 18)

Picked from the list: the 5 lowest averages where every replicate gave a value.

CDR-H1	CDR-H2	CDR-H3	group	apparent Kd	seen in	signal with controls
GFDLNEYGIS	VIYADGRRTQYADSVK	GETAGTFDV	En_HC	15 pM	6/6	0/18
GFDLNEYGIS	VIYADGMRTSYADSVK	GENAGTFDQ	En_Gen	110 pM	6/6	1/18
GFDLNEYGIS	VIYADGQRTAYTDSVK	GNVAGTFDV	En_Gen	140 pM	6/6	0/18
GFDLNEYGIS	VIYADGQRTFYADSVK	GSEAGTFDM	En_HC	140 pM	6/6	0/18
GFDLNEYGIS	VIYADGQRTAYQDSVK	GNVAGTFDV	En_Gen	160 pM	6/6	0/18